Drawing on US8778951B2, “Heteroaryl compounds and their uses” (Novartis AG, priority 2009, dated 2014), this text covers IC50 for 44 molecules.

Amino acid sequences for entries named in this document (tags omitted).
UniProt P50750, whole entry: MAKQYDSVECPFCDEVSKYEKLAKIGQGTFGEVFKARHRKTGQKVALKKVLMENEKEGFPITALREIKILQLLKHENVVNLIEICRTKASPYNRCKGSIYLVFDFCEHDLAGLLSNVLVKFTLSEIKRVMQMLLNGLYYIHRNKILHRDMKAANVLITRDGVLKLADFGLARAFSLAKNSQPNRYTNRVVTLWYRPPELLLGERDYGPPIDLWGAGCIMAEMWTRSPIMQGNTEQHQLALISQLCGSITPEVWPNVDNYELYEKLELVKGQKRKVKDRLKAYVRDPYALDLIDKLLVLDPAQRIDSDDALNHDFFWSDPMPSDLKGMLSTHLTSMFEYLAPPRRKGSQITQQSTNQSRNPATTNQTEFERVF

By IC50 is commonly meant the concentration that gives 50% inhibition. Low readings indicate higher potency, high ones lower potency.

For this test, the target named is Cdk9/cyclinT1 (Homo sapiens (Human), UniProt P50750). Put plainly: Cdk9/CyclinT1 IMAP Protocol (fluorescence polarization kinase assay). In kind it is biochemical. Conditions: Table 2; generated using one of the two Cdk9/cyclinT1 assays (IMAP or Alpha Screen), not specified which; unit inferred. The method, then: Cdk9/CyclinT1 IMAP Protocol
The biological activity of the compounds of the invention can be determined using the assay described below.
Cdk9/cyclinT1 is purchased from Millipore, cat #14-685. The final total protein concentration in the assay 4 nM. […] The final concentration of peptide substrate is 100 nM. The ATP substrate (Adenosine-5′-triphosphate) is purchased from Roche Diagnostics, cat#1140965. The final concentration of ATP substrate is 6 uM. IMAP (Immobilized Metal Assay for Phosphochemicals) Progressive Binding reagent is purchased from Molecular Devices, cat#R8139. Fluorescence polarization (FP) is used for detection. The 5TAMRA-cdk7tide peptide is phosphorylated by Cdk9/cyclinT1 kinase using the ATP substrate. The Phospho-5TAMRA-cdk7tide peptide substrate is bound to the IMAP Progressive Binding Reagent. The binding of the IMAP Progressive Binding Reagent changes the fluorescence polarization of the 5TAMRA-cdk7tide peptide which is measured at an excitation of 531 nm and FP emission of 595 nm. Assays are carried out in 100 mM Tris, pH=7.2, mM MgCl2, 0.05% NaN3, 0.01% Tween-20, 1 mM dithiothreitol and 2.5% dimethyl sulfoxide. IMAP Progressive Binding Reagent is diluted 1:800 in 100% 1× Solution A from Molecular Devices, cat#R7285.
General protocol is as follows: To 10 ul of cdk9/cyclinT1, 0.5 ul of test compound in dimethyl sulfoxide is added. 5TAMRA-cdk7tide and ATP are mixed. 10 ul of the 5TAMRA-cdk7tide/ATP mix is added to start the reaction. The reaction is allowed to proceed for 4.5 hrs. 60 uL of IMAP Progressive Binding Reagent is added. After >1 hr of incubation, plates are read on the Envision 2101 from Perkin-Elmer. The assay is run in a 384-well format using black Corning plates, cat#3573.
(Polarisation of emitted light reports the rotation of a fluorescent probe.)
The molecule `N[C@H]1CC[C@H](Nc2cc(-c3ccc(F)c(NCc4cccc(F)c4)n3)c(Cl)cn2)CC1` [Compound 12, N2′-(trans-4-aminocyclohexyl)-5′-chloro-5-fluoro-N^6-(3-fluorobenzyl)-2,4′-bipyridine-2′,6-diamine] showed an IC50 of 0.00795 µM. On to `N#Cc1cc(NCc2cccc(F)c2)nc(-c2cc(N[C@H]3CC[C@H](N)CC3)ncc2Cl)c1` [Compound 15, 2′-(trans-4-aminocyclohexylamino)-5′-chloro-6-(3-fluorobenzylamino)-2,4′-bipyridine-4-carbonitrile], for which inhibition was half-maximal at 0.00795 µM (IC50).

On to `CN(C)[C@H]1CC[C@H](Nc2cc(-c3cccc(NCc4cccc(F)c4)n3)c(Cl)cn2)CC1` [Compound 18, 5′-chloro-N2′-(trans-4-(dimethylamino)cyclohexyl)-N6-(3-fluorobenzyl)-2,4′-bipyridine-2′,6-diamine], for which the midpoint of inhibition, the IC50, lay at 0.00795 µM. In the case of `N[C@H]1CC[C@H](Nc2cc(-c3cncc(NCc4cccc(F)c4)n3)ccn2)CC1` [Compound 30], the half-inhibitory concentration (IC50) stood at 0.00795 µM.

The molecule `NC[C@H]1CC[C@H](Nc2cc(-c3cccc(NCc4ccc(F)c(F)c4)n3)c(Cl)cn2)CC1` [Compound 63] returned an IC50 of 0.00795 µM. As to `NC[C@H]1CC[C@H](Nc2cc(-c3cccc(NCc4cc(F)cc(F)c4)n3)c(Cl)cn2)CC1` [Compound 65], the half-inhibitory concentration (IC50) stood at 0.00795 µM. As for `Fc1cccc(CNc2cccc(-c3cc(N[C@H]4CC[C@H](CN5CCCCC5)CC4)ncc3Cl)n2)c1` [Compound 110], the figure is 0.0252 µM. For `O[C@H]1CC[C@H](Nc2cc(-c3cccc(NCc4ccncc4)n3)c(Cl)cn2)CC1` [Compound 122], the concentration for half-maximal inhibition (IC50) was determined as 0.00795 µM.

Take `O[C@H]1CC[C@H](Nc2cc(-c3cccc(NC[C@H]4CCCO4)n3)c(Cl)cn2)CC1` [Compound 125]: the IC50 was determined as 0.279 µM. As for `O[C@H]1CC[C@H](Nc2cc(-c3cccc(NC[C@@H]4CCCO4)n3)c(Cl)cn2)CC1` [Compound 127], the figure is 0.139 µM. In turn, `OC1CCN(c2cccc(-c3cc(N[C@H]4CC[C@H](O)CC4)ncc3Cl)n2)CC1` [Compound 130] returned a 50% inhibitory concentration (IC50) of 0.169 µM.

For `NCC1CCN(c2cccc(-c3cc(N[C@H]4CC[C@H](O)CC4)ncc3Cl)n2)CC1` [Compound 136], half-maximal inhibition (IC50) required 0.204 µM. `NCCCCNc1cc(-c2cccc(NCc3cccc(F)c3)n2)c(Cl)cn1` [Compound 145] registered a concentration for half-maximal inhibition (IC50) of 0.00795 µM. For the molecule `Fc1cccc(CNc2cccc(-c3cc(N[C@H]4CC[C@H](Nc5cc(Cl)ncn5)CC4)ncc3Cl)n2)c1` [Compound 156, 5′-chloro-N2′-(trans-4-(6-chloropyrimidin-4-yl-amino)cyclohexyl)-N6-(3-fluorobenzyl)-2,4′-bipyridine-2′,6-diamine], the midpoint of inhibition, the IC50, lay at 0.045 µM. As for `Fc1cccc(CNc2cccc(-c3cc(NCC4CCCOC4)ncc3Cl)n2)c1` (centres unmarked) [Compound 176], the figure is 0.021 µM; as for `Fc1cccc(CNc2cccc(-c3cc(NCCc4ccncc4)ncc3Cl)n2)c1` [Compound 177], 0.013 µM. As for `Fc1cccc(CNc2cccc(-c3cc(NC4CC=CCC4)ncc3Cl)n2)c1` (centres unmarked) [Compound 185], the figure is 0.11 µM; as for `CC(C)(C)OC(=O)CNc1cc(-c2cccc(NCc3cccc(F)c3)n2)c(Cl)cn1` [Compound 187], 2.74 µM; as for `O=C(O)CNc1cc(-c2cccc(NCc3cccc(F)c3)n2)c(Cl)cn1` [Compound 196], 0.812 µM. As for `O=C(O)[C@@H]1CC[C@H](Nc2cc(-c3cccc(NCc4cccc(F)c4)n3)c(Cl)cn2)C1` [Compound 201], the figure is 0.634 µM; as for `O=C(O)[C@H]1CC[C@@H](Nc2cc(-c3cccc(NCc4cccc(F)c4)n3)c(Cl)cn2)C1` [Compound 202], 0.0188 µM. `CNC(=O)[C@H]1CC[C@@H](Nc2cc(-c3cccc(NCc4cccc(F)c4)n3)c(Cl)cn2)C1` [Compound 204]: the IC50 stood at 0.00794 µM. `O=C(N[C@H]1CC[C@H](Nc2cc(-c3cccc(NC[C@H]4CCCNC4)n3)c(Cl)cn2)CC1)OCc1ccccc1` [Compound 206] gave an IC50 of 0.134 µM. As for `O=C(N[C@H]1CC[C@H](Nc2cc(-c3cccc(NC[C@@H]4CCCNC4)n3)c(Cl)cn2)CC1)OCc1ccccc1` [Compound 207], the figure is 0.114 µM; as for `CNC(=O)[C@@H]1CC[C@H](Nc2cc(-c3cccc(NCc4cccc(F)c4)n3)c(Cl)cn2)C1` [Compound 214], 0.0417 µM. As to `OC[C@@H]1CC[C@H](Nc2cc(-c3cccc(NCc4cccc(F)c4)n3)c(Cl)cn2)C1` [Compound 219], the concentration for half-maximal inhibition (IC50) turned out to be 0.00795 µM.

In turn, `OC[C@H]1CC[C@@H](Nc2cc(-c3cccc(NCc4cccc(F)c4)n3)c(Cl)cn2)C1` [Compound 220] registered a half-maximal inhibitory concentration (IC50) of 0.00795 µM. As for `N[C@H]1CC[C@H](Nc2cc(-c3cccc(NCC4CCS(=O)(=O)CC4)n3)c(Cl)cn2)CC1` [Compound 230, N-(4-Amino-cyclohexyl)-5′-chloro-N-(1,1-dioxo-hexahydro-1-thiopyran-4-yl-methyl)-[2,4′]bipyridinyl-6,2′-diamine], the figure is 0.00795 µM; as for `NC[C@H]1CC[C@@H](Nc2cc(-c3cccc(NCc4cccc(F)c4)n3)c(Cl)cn2)C1` [Compound 234], 0.00795 µM. As for `CNC[C@H]1CC[C@@H](Nc2cc(-c3cccc(NCc4cccc(F)c4)n3)c(Cl)cn2)C1` [Compound 235, 5′-chloro-N6-(3-fluorobenzyl)-N2′-((1R,3 S)-3-((methylamino)methyl)cyclopentyl)-2,4′-bipyridine-2′,6-diamine], the midpoint of inhibition, the IC50, lay at 0.00795 µM. As for `CCNC[C@H]1CC[C@@H](Nc2cc(-c3cccc(NCc4cccc(F)c4)n3)c(Cl)cn2)C1` [Compound 236], the figure is 0.00795 µM; as for `NC[C@@H]1CC[C@H](Nc2cc(-c3cccc(NCc4cccc(F)c4)n3)c(Cl)cn2)C1` [Compound 237], 0.00795 µM. As for `CNC[C@@H]1CC[C@H](Nc2cc(-c3cccc(NCc4cccc(F)c4)n3)c(Cl)cn2)C1` [Compound 238], the concentration for half-maximal inhibition (IC50) was 0.0136 µM. `CCNC[C@@H]1CC[C@H](Nc2cc(-c3cccc(NCc4cccc(F)c4)n3)c(Cl)cn2)C1` [Compound 239]: the IC50 came to 0.0184 µM.

In turn, `N[C@H]1CC[C@H](Nc2cc(-c3cnc(C4CC4)c(NCC4CCOCC4)n3)c(Cl)cn2)CC1` [Compound 240, trans-N^1-(5-chloro-4-(5-cyclopropyl-6-((tetrahydro-2H-pyran-4-yl)methyl)aminopyrazin-2-yl)pyridin-2-yl)cyclohexane-1,4-diamine] had an IC50 of 0.021 µM.

Turning to `N[C@H]1CC[C@H](Nc2cc(-c3nc(NCC4CCOCC4)ccc3Cl)ccn2)CC1` [Compound 265, N2′-(trans-4-aminocyclohexyl)-3-chloro-N6-((tetrahydro-2H-pyran-4-yl)methyl)-2,4′-bipyridine-2′,6-diamine], the half-inhibitory concentration (IC50) worked out at 0.0326 µM.

In turn, `O[C@H]1CC[C@@H](Nc2cc(-c3nc(NCC4CCOCC4)ccc3Cl)c(Cl)cn2)CC1` [Compound 267] registered an IC50 of 0.27 µM. Consider `Clc1cnc(N[C@H]2CC[C@H](NC[C@@H]3CCCO3)CC2)cc1-c1nc(NCC2CCOCC2)ccc1Cl` [Compound 270], for which the IC50 turned out to be 0.00794 µM.

Turning to `N[C@H]1CC[C@H](Nc2cc(-c3nc(NCC4CCOCC4)ccc3F)c(Cl)cn2)CC1` [Compound 282, N2′-(trans-4-aminocyclohexyl)-5′-chloro-3-fluoro-N6-((tetrahydro-2H-pyran-4-yl)methyl)-2,4′-bipyridine-2′,6-diamine], the half-inhibitory concentration (IC50) stood at 0.00794 µM. In the case of `COCCN[C@H]1CC[C@H](Nc2cc(-c3nc(NCC4CCOCC4)ccc3F)c(Cl)cn2)CC1` [Compound 283, 5′-chloro-3-fluoro-N2′-(trans-4-(2-methoxyethylamino)cyclohexyl)-N6-((tetrahydro-2H-pyran-4-yl)methyl)-2,4′-bipyridine-2′,6-diamine], 0.001 µM corresponded to half-maximal inhibition (IC50). As for `COC[C@@H](C)N[C@H]1CC[C@H](Nc2cc(-c3cccc(NCC4CCOCC4)n3)c(Cl)cn2)CC1` [Compound 287], the figure is 0.003 µM. Turning to `COC[C@@H](C)N[C@H]1CC[C@H](Nc2cc(-c3nc(NCC4CCOCC4)ccc3Cl)c(Cl)cn2)CC1` [Compound 291, 5′-chloro-N2′-(trans-4-((R)-1-methoxypropan-2-yl-amino)cyclohexyl)-N6-((tetrahydro-2H-pyran-4-yl)methyl)-2,4′-bipyridine-2′,6-diamine], the midpoint of inhibition, the IC50, lay at 0.001 µM. `O[C@H]1CC[C@H](Nc2cc(-c3nc(NCC4CCOCC4)ccc3Cl)c(Cl)cn2)CC1` [Compound 296] yielded an IC50 of 0.277 µM. With `FC(F)(F)OCCN[C@H]1CC[C@H](Nc2cc(-c3nc(NCC4CCOCC4)ccc3Cl)c(Cl)cn2)CC1` [Compound 302, 3,5′-dichloro-N6-((tetrahydro-2H-pyran-4-yl)methyl)-N2′-(trans-4-(2-(trifluoromethoxy)ethylamino)cyclohexyl)-2,4′-bipyridine-2′,6-diamine], the IC50 stood at 0.001 µM.
